The entries are a selection whose mix differs from that of the whole data set. Some structures show a salt or complex split into parts, the way the source records it. Active and inactive are the calls of the source.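 How the source made its calls: active means inhibition of at least 50% at 8 µM in the primary screen; inactive means the rest.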

Sequences of proteins named here, by UniProt entry; tags and fusion partners are left off.
UniProt O15151, whole entry, looked up: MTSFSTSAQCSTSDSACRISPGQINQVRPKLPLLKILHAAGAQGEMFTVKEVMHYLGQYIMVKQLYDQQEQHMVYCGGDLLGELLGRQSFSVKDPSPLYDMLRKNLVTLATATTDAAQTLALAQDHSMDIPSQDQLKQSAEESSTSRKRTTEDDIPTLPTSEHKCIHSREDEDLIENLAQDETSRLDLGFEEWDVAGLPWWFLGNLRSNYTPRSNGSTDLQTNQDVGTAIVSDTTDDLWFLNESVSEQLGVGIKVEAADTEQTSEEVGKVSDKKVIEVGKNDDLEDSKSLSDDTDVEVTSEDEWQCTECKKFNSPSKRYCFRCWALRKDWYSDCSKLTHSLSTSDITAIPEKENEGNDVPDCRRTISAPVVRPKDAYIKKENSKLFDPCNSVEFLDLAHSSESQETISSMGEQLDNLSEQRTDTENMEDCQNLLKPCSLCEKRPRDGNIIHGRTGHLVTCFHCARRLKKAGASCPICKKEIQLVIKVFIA
UniProt Q00987, whole entry, looked up: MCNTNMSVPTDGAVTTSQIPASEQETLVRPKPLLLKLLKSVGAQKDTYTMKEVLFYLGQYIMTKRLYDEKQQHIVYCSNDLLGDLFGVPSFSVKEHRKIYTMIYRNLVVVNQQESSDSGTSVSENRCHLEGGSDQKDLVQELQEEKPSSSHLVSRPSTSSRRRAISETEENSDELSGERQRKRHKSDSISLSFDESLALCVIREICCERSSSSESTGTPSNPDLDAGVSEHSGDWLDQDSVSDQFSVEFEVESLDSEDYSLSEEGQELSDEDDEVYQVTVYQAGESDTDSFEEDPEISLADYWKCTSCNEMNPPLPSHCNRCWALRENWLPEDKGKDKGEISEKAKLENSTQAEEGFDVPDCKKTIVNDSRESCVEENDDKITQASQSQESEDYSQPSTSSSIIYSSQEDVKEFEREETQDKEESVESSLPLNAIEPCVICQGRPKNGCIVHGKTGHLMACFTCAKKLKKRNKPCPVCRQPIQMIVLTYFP

The target in this assay is Protein Mdm4 (Homo sapiens) + E3 ubiquitin-protein ligase Mdm2 (Homo sapiens) (UniProt O15151+Q00987). As to the kind of experiment: inhibitors of human Mdm2-MdmX association, primary screen, cell-based, luminescence, split luciferase, SaOS-2, uHTS (AID 485346). To be noted: SaOS-2 split-luciferase Mdm2/MdmX complementation, at 8 µM, active compounds read high.
Take `COc1ccccc1OP(C)(=O)Nc1ccccc1` (stereo unspecified): the inhibition was inactive: 3.51%.
Regarding `CP(=O)(Nc1ccccc1Br)Oc1ccccc1` (stereo unspecified), the inhibition was inactive: -4.9%.
The figure for `CP(=S)(Nn1cnnc1)Oc1ccccc1` (stereo unspecified) is inactive: -5.12%; for `CP(=O)(Nc1ccccn1)Oc1ccc(Cl)cc1` (stereo unspecified) it is inactive: -29.3%; for `CCOP(C)(=S)SCC(=O)NC(C)C(=O)O` (stereo unspecified) it is inactive: 7.58%.
`CCOC(=O)c1ccc(NP(C)(=O)Oc2ccc(OC)cc2)cc1` (stereo unspecified): the inhibition was inactive: 6.41%.
For `O=[N+]([O-])c1cc([N+](=O)[O-])c(O)c([N+](=O)[O-])c1.c1ccc(Oc2ccncc2)cc1` the value was inactive: -3.79%; for `CCc1ccc(OP(C)(=O)N2CCN(c3ccc([N+](=O)[O-])cc3)CC2)cc1` (stereo unspecified), inactive: -12.1%; for `CP(=O)(NC(=O)Nc1ccccc1)Oc1ccccc1` (stereo unspecified), inactive: -4.63%.
The figure for `Cc1cc(C)cc(OP(C)(=O)Nc2ccc(SC(F)(F)F)cc2)c1` (stereo unspecified) is inactive: 34.7%; for `Cc1cccc(C)c1OP(C)(=O)Nc1ccc(SC(F)(F)F)cc1` (stereo unspecified) it is inactive: 7.67%.
With `CP(=O)(Nc1ccc(SC(F)(F)F)cc1)Oc1ccc(Cl)cc1` (stereo unspecified), the inhibition was inactive: 13.1%.
The figure for `CP(=O)(Oc1ccccc1)OC(c1ccccc1)C(F)(F)F` (stereo unspecified) is inactive: 11.8%; for `CCN(CC)CCCOC(=O)C(O)(c1ccccc1)c1ccccc1` it is inactive: -18.9%; for `COc1ccccc1OP(C)(=O)Nc1cc(Cl)ccc1C` (stereo unspecified) it is inactive: -4.24%.
For the compound `COc1ccc(OP(C)(=O)Nc2cccc(F)c2)cc1` (stereo unspecified), the inhibition was inactive: 12.3%.
For `Cc1cc(C)cc(OP(C)(N)=O)c1` (stereo unspecified), the inhibition is inactive: 2.69%.
For `CCOC(=O)c1ccc(NP(C)(=O)Oc2ccccc2)cc1` (stereo unspecified) the value was inactive: 24%.
The figure for `COc1ccccc1OP(C)(=O)Nc1ccc(C)cc1` (stereo unspecified) is inactive: -19%.
In the case of `Cc1ccc(NP(C)(=O)Oc2ccccc2)c(C)c1` (stereo unspecified), the inhibition is inactive: -13.8%.
The figure for `CC(C)(C)c1ccc(OP(C)(=O)Nc2ccc(SC(F)(F)F)cc2)cc1` (stereo unspecified) is inactive: -6.38%; for `Cc1cccc(C)c1OP(C)(N)=O` (stereo unspecified) it is inactive: -3.75%; for `O=[N+]([O-])c1cc([N+](=O)[O-])c(Nc2cccnc2)c([N+](=O)[O-])c1` it is inactive: 38.3%.
As for `CC1=NCCc2c1[nH]c1ccccc21.O=[N+]([O-])c1cc([N+](=O)[O-])c(O)c([N+](=O)[O-])c1`, the inhibition was inactive: 5.96%.
The figure for `O=C(O)c1cccc(Nc2c([N+](=O)[O-])cc([N+](=O)[O-])cc2[N+](=O)[O-])c1` is inactive: 1.34%.
As to `CP(=O)(Nc1cccc(Br)c1)Oc1ccccc1` (stereo unspecified), the inhibition is inactive: 3.86%.
`Cc1cc(C)cc(OP(C)(=O)Nc2ccccn2)c1` (stereo unspecified): the inhibition was inactive: 4.37%.
For `Cc1ccc(C)c(NP(C)(=O)Oc2ccccc2)c1` (stereo unspecified) the value was inactive: -9.47%.
For `Cc1cc(C)cc(OP(C)(=O)Nc2ccc(C)cc2C)c1` (stereo unspecified) the value was inactive: 10.5%.
The figure for `CCOC(=O)c1ccc(NP(C)(=O)Oc2cc(C)cc(C)c2)cc1` (stereo unspecified) is inactive: 10.5%.
`COc1ccccc1OP(C)(=O)Nc1cccc(Br)c1` (stereo unspecified): the inhibition is inactive: -7.19%.
Regarding `Cc1nc2ccc3ccccc3c2s1.O=[N+]([O-])c1cc([N+](=O)[O-])c(O)c([N+](=O)[O-])c1`, the inhibition is inactive: -6.95%.
As for `O=[N+]([O-])c1cc([N+](=O)[O-])c(-c2cnn(-c3ccccc3)c2)c([N+](=O)[O-])c1`, the inhibition was inactive: 17.6%.
The figure for `O=[N+]([O-])c1cc([N+](=O)[O-])c(-n2nnc3ccccc32)c([N+](=O)[O-])c1` is inactive: 0.147%.
As for `CP(=O)(Nc1ccc(SC(F)(F)F)cc1)Oc1ccccc1` (stereo unspecified), the inhibition is inactive: 17.4%.
Regarding `CCCOc1ccc(NP(C)(=O)Oc2ccc(Cl)cc2)cc1` (stereo unspecified), the inhibition was inactive: 10.8%.
The figure for `COc1ccccc1OP(C)(=O)Nc1c(C)cccc1C` (stereo unspecified) is inactive: 9.23%.
For `O=[N+]([O-])c1cc([N+](=O)[O-])c(Nc2nnnn2CCO)c([N+](=O)[O-])c1` the value was inactive: 16.3%; for `CC1=C2N=C(C=C3N=C(C(C)=C4[N-][C@@](C)([C@@H]5N=C1[C@](C)(CCC(=O)NC[C@@H](C)OP(=O)([O-])O[C@H]1[C@@H](O)[C@@H](n6cnc7cc(C)c(C)cc76)O[C@@H]1CO)[C@H]5CC(N)=O)[C@@](C)(CC(N)=O)[C@@H]4CCC(N)=O)[C@@](C)(CC(N)=O)[C@@H]3CCC(N)=O)C(C)(C)[C@@H]2CCC(N)=O.[C-]#N.[Co+3]`, inactive: 35.4%; for `CCOC(=O)C(CC)C1=NC(C)(C)Cc2ccccc21.O=[N+]([O-])c1cc([N+](=O)[O-])c(O)c([N+](=O)[O-])c1` (stereo unspecified), inactive: 2.68%.
For `O=[N+]([O-])c1cc([N+](=O)[O-])c(NCC2CCS(=O)(=O)C2)c([N+](=O)[O-])c1` (stereo unspecified) the value was inactive: -6.9%; for `COc1ccc(NP(C)(=O)Oc2ccccc2OC)cc1` (stereo unspecified), inactive: 15.3%.
Take `CN(C)CCOC(=O)C(O)(c1ccccc1)C1CCCCC1` (stereo unspecified): the inhibition is inactive: 8.87%.
For `COc1ccc(OP(C)(=O)Nc2cccc(Br)c2)cc1` (stereo unspecified) the value was inactive: 1.37%; for `Cc1ccccc1NP(C)(=O)Nc1ccccc1C`, inactive: -10.9%.
The figure for `CP(=O)(Nc1ccc2c(c1)OCCO2)Oc1ccccc1` (stereo unspecified) is inactive: 21.6%; for `CCOP(C)(=S)SCC(=O)NC(C)(CC)C(=O)O` (stereo unspecified) it is inactive: 4.24%; for `CP(=O)(Nc1ccc(SC(F)(F)F)cc1)Oc1ccc(F)cc1` (stereo unspecified) it is inactive: 23.6%.
The figure for `COc1ccc2c(c1O)-c1c(O)c(OC)cc3c1[C@H](C2)[N+](C)(C)CC3.O=[N+]([O-])c1cc([N+](=O)[O-])c([O-])c([N+](=O)[O-])c1[O-]` is inactive: -6.26%.
Turning to `O=C(OCCN1CCN(CCOCc2ccccc2)CC1)C(O)(c1ccccc1)c1ccccc1`, the inhibition was inactive: -25.9%.
Regarding `O=C(OC1CN2CCC1CC2)c1ccc([N+](=O)[O-])cc1` (stereo unspecified), the inhibition is inactive: 5.4%.
`CC(C)c1ccc(OP(C)(=O)Nc2ccc(SC(F)(F)F)cc2)cc1` (stereo unspecified): the inhibition is inactive: -29.8%.
For `CP(=O)(Nc1ccccc1F)Oc1ccccc1` (stereo unspecified), the inhibition is inactive: -0.838%.
For `O=[N+]([O-])c1cc([N+](=O)[O-])c(OC2CCCCC2O)c([N+](=O)[O-])c1` (stereo unspecified), the inhibition is inactive: -19.9%.
For `CCCCCOc1ccc(NP(C)(=O)Oc2ccc(Cl)cc2Cl)cc1` (stereo unspecified) the value was inactive: 5.45%.
The figure for `CP(=O)(Nc1ccccc1)Oc1ccc(F)cc1` (stereo unspecified) is inactive: 13.6%; for `CCN(CC)CCCOC(=O)C(O)(c1ccccc1)C1CCCCC1` (stereo unspecified) it is inactive: 12.6%; for `COc1ccc(OP(C)(=O)Nc2ccc(SC(F)(F)F)cc2)cc1` (stereo unspecified) it is inactive: 1.82%.
Consider `CCOC(=O)c1ccc(NP(C)(=O)Oc2ccc(F)cc2)cc1` (stereo unspecified), for which the inhibition is inactive: 8.7%.
Turning to `CP(=O)(OCCOc1ccccc1)OCCOc1ccccc1`, the inhibition was inactive: 18%.
For `CP(=O)(Nc1ccc(Cl)cc1Cl)Oc1ccccc1` (stereo unspecified) the value was inactive: -2.84%; for `Cc1nc2ccc3ccccc3c2o1.O=[N+]([O-])c1cc([N+](=O)[O-])c(O)c([N+](=O)[O-])c1`, inactive: 12%.
`COc1ccc(OP(C)(=O)Nc2ccccc2Br)cc1` (stereo unspecified): the inhibition was inactive: 20%.
As to `COc1ccccc1OP(C)(=O)Nc1ccc(C)c(C)c1` (stereo unspecified), the inhibition was inactive: 24.3%.
For `Cc1cc(C)cc(OP(C)(=O)Nc2cccc(C(F)(F)F)c2)c1` (stereo unspecified), the inhibition was inactive: -6.13%.
`CCc1ccc(OP(C)(=O)O)cc1`: the inhibition was inactive: 1.88%.
The figure for `CP(=O)(Nc1ccccn1)Oc1ccccc1` (stereo unspecified) is inactive: 10.6%.
As for `COc1ccccc1OP(C)(=O)Nc1ccc(C)cc1C` (stereo unspecified), the inhibition is inactive: 4.53%.
As for `O=[N+]([O-])c1cc([N+](=O)[O-])c(Nc2ccccn2)c([N+](=O)[O-])c1`, the inhibition was inactive: 34.7%.
As for `Cc1c(NP(C)(=O)Oc2ccc(C(C)C)cc2)c(=O)n(-c2ccccc2)n1C` (stereo unspecified), the inhibition is inactive: -0.131%.
Consider `CN(C)CCOC(=O)C(O)(c1ccccc1)C1CCCC1` (stereo unspecified), for which the inhibition was inactive: 7%.
The figure for `COc1ccc(OP(C)(=O)Nc2ccccn2)cc1` (stereo unspecified) is inactive: 7.97%.
For `COc1ccccc1OP(C)(=O)Nc1ccc(Br)cc1` (stereo unspecified) the value was inactive: 5.94%; for `CN(C)C(=O)c1c([N+](=O)[O-])cc([N+](=O)[O-])cc1[N+](=O)[O-]`, inactive: 17.5%.
The figure for `CP(=O)(Nc1ccc(Cl)cc1)Oc1ccc(F)cc1` (stereo unspecified) is inactive: -0.66%.
Regarding `CC(C)(C)c1ccc(OP(C)(=O)O)cc1`, the inhibition was inactive: -26.3%.
The figure for `COc1ccccc1OP(C)(=O)Nc1ccccc1Br` (stereo unspecified) is inactive: 19.5%; for `CP(=O)(Oc1ccccc1)N1CCOC1=O` (stereo unspecified) it is inactive: 28.8%.
As to `CCc1ccc(OP(C)(=O)Nc2cccnc2)cc1` (stereo unspecified), the inhibition is inactive: -8.53%.
The figure for `COc1ccccc1OP(C)(=O)Nc1c(C)n(C)n(-c2ccccc2)c1=O` (stereo unspecified) is inactive: -10.4%; for `O=C(OCCCN1CCCC1)C(O)(c1ccccc1)C1CCCCC1` (stereo unspecified) it is inactive: -5.35%.
On to `CCN(CC)CC(O)COC(=O)C(O)(c1ccccc1)C1CCCCC1` (stereo unspecified), for which the inhibition was inactive: -10.6%.
`COc1ccc(OP(C)(=O)Nc2ccc(Br)cc2)cc1` (stereo unspecified): the inhibition is inactive: -2.9%.
As to `CP(=O)(OC12CC3CC(CC(C3)C1)C2)OC12CC3CC(CC(C3)C1)C2`, the inhibition is inactive: 18.9%.
In the case of `CCOC(=O)c1ccc(NP(C)(=O)Oc2ccc(Cl)cc2)cc1` (stereo unspecified), the inhibition is inactive: 6.8%.
The figure for `Nc1ccc2c(ccc3cccnc32)n1.O=[N+]([O-])c1cc([N+](=O)[O-])c(O)c([N+](=O)[O-])c1` is inactive: 27.9%.

What is called inhibition is the relative decrease from the control value, in per cent.

The record behind these values is PubChem BioAssay AID485346 (Sanford-Burnham Center for Chemical Genomics, 2010).
